# Apparent affinities of Ab-14 variants for a coronavirus HR2 peptide

Source: Li et al. 2023 (doi:10.1038/s41467-023-39022-2), MIT Lincoln Laboratory and A-Alpha Bio; data file from the FLAb repository.

Target peptide (SARS-CoV-2 spike, HR2 region): PDVDLGDISGINAS

The variants keep the heavy chain, the linker and the frameworks of Ab-14 (scFv order VH, a (GGGGS)3 linker, VL).
VH: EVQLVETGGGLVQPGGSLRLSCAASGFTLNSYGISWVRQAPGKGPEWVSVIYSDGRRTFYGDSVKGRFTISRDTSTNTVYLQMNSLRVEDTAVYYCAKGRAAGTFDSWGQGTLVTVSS
VL: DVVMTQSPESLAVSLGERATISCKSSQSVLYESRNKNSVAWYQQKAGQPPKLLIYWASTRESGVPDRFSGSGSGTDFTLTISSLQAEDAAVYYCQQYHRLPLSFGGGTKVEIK

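The variants were designed computationally from a first round of random CDR variants and then made and measured. Their group label is 14L_GP_HC (GP: Gaussian process model; HC: hill climbing; a sequence that several methods proposed may carry one label only). In AlphaSeq, yeast of one mating type display the scFv and yeast of the other type display the target. Pairs that bind mate more often; barcode pairs of the diploids are counted by sequencing. Scores were corrected for input abundance and mapped to Kd with protein pairs of known affinity run in the same pool. Mating was done six times.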

Variants are written as CDR1, CDR2 and CDR3 of the light chain (limits as in the source). Parent: KSSQSVLYESRNKNSVA, WASTRES, QQYHRLPLS. Numbers give log10(Kd / nM), so 0 is 1 nM and 3 is 1 µM. Smaller is tighter. An entry "ND" has no value in the source: the pair was not observed among the diploids in that replicate. This suggests poor binding but is not conclusive. Nonspecific signal, from three strains lacking the peptide, appeared in 4% of pairings of all light chain designs, centred on 2.64 (5% of these signals below 1.59); values are not corrected for it. The control count says in how many pairings with the empty strains this scFv gave a signal, with their mean in brackets. Values of this round are not directly comparable with the first-round values of the same sequences. In the paper, a design with two or fewer of six values counts as a poor binder.

CDR-L1	CDR-L2	CDR-L3	log10 Kd, replicates	control signals
KSSASYLYESRNKNSVA	AASTRES	QQYHRLPLS	0.16 0.00 -0.16 -0.08 -0.08 0.06	3/18 (3.76)
HSSPSVEYESRNKNSVA	NASMRES	QQYHRLPLS	-0.16 -0.09 -0.15 -0.11 -0.05 0.13	1/18 (1.82)
KSQQSQLYESRNFNSVA	QASTRED	QQYHRLPLS	0.42 0.29 0.12 0.06 0.33 0.32	2/18 (3.07)
KSSQSVPGEQRNKNSVA	DASTRES	QQYHRLPLS	0.67 0.12 0.39 -0.09 0.33 0.30	1/18 (2.12)
KVSQSWLQESRNKNSVA	EASTRQS	QQYHRLPLS	-0.10 -0.30 -0.40 -0.43 -0.45 -0.35	1/18 (2.50)
KLRQQTLYETRNKNSVA	EASTREE	QQYHRLPLS	-0.26 -0.28 -0.53 -0.44 -0.44 -0.27	2/18 (2.59)
KVSPSHLYESRNKNSVA	QASTRES	QQYHRLPLS	0.48 0.23 0.22 0.22 0.11 0.23	0/18
KSLQSHLYESRNKNSVA	HASTREQ	QQYHRLPLS	0.99 1.28 0.95 1.59 1.76 0.79	0/18
KSSISYLYESQNKNSVA	AASTRES	QQYHRLPLS	0.46 0.28 0.15 -0.02 0.19 0.38	0/18
KSSQSVLMESRNFNSVA	DASTRES	QQYHRLPLS	0.18 0.08 -0.07 -0.23 -0.23 0.21	0/18
KFSNSGLYESRNKNSVA	EASTRES	QQYHRLPLS	0.04 -0.12 -0.30 -0.02 -0.10 0.04	1/18 (2.08)
HSSPSVLYESRNKNSVA	HASTRES	QQYHRLPLS	0.08 -0.07 0.27 0.10 0.64 0.26	0/18
KHSQSVLQESRNKNSVA	DASTRES	QQYHRLPLS	0.14 -0.07 0.03 -0.15 -0.13 0.12	2/18 (2.27)
KVLQSVLYESRNKNSVA	HASTRES	QQYHRLPLS	-0.07 0.01 -0.06 -0.35 -0.16 0.14	1/18 (2.72)
KSSSSYLYESENKNSVA	EASQRES	QQYHRLPLS	0.60 0.26 0.00 0.22 0.15 0.49	2/18 (2.18)
KYSQSVLYESRNKNSVA	DASTRES	QQYHRLPLD	0.39 0.37 0.14 0.12 0.45 0.53	0/18
KSPQSVLYESRNKNSVA	HASTRED	QQYHRLPLS	-0.04 0.09 -0.17 -0.20 -0.16 0.07	0/18
HVSPSVLYESRNKNSVA	EASTRES	QQYHRLPLS	-0.07 -0.04 -0.31 -0.27 -0.23 -0.15	0/18
HSSPSVFYESRNKNSVA	NASTRES	QQYHRLPLS	0.47 0.43 0.72 0.02 0.16 0.78	0/18
KLMQSVLLESRNKNSVA	HASLRED	QQYHRLPLS	0.68 0.71 1.47 0.85 1.04 0.44	0/18
HSSPSVPYESRNKNSVA	DASTRES	QQYHRLPLS	0.44 0.84 0.61 -0.26 0.23 0.53	0/18
KSSWSELFESRNKNSVA	DASTRES	QQYHRLPLS	0.20 -0.14 0.10 0.08 0.00 0.01	0/18
KCSWSVLFESRNKNSVA	DASTRES	QQYHRLPLS	-0.22 -0.19 -0.35 -0.32 -0.29 -0.18	0/18
KWSISYLEESRNKNSVA	EASTRES	QQYHRLPLS	0.49 0.46 0.45 0.99 0.73 0.72	0/18
KLSQSVLYESRNKNSVA	HASTRED	QSYHRLPLS	0.20 0.11 -0.02 -0.06 0.06 0.12	3/18 (2.64)
HLSPSTLYESRNKNSVA	NASTRES	QQYHRLPLS	0.61 0.10 -0.18 0.10 0.14 0.24	0/18
KLVNSTLYESRQKNSVA	WASTRLS	QQYHRLPLS	ND ND ND ND ND ND	1/18 (2.61)
KLSQSFLYESRQKNSVA	GASQRES	QQYHRLPLS	-0.08 0.01 0.01 -0.13 -0.07 0.22	0/18
KVLQSVGYEGRNKNSVA	HASTRED	QQYHRLPLS	0.22 -0.26 -0.16 -0.11 0.11 0.05	1/18 (0.81)
KVSQSVLYESRNKNSVA	DASTRES	QQYHRLPLD	0.58 0.51 0.79 0.52 0.39 0.33	1/18 (1.80)
KSSSSVLYESHNKNSVA	NASTRMS	QQYHRLPLS	1.99 0.94 0.65 0.80 0.96 0.93	0/18
KLRQSHNYESRNKNSVA	NASTRES	QIYHRLPLS	1.25 1.30 1.45 1.67 1.50 1.59	2/18 (2.79)
KFSQSVLYESRLSNRVA	NASTRES	QQYHRLPLS	0.54 0.60 0.73 0.29 0.51 0.61	0/18
KVSQSVLYESRMKNSVA	DASTRLS	QQYHRLPLS	0.23 0.02 -0.02 0.02 0.18 0.32	2/18 (2.82)
KSSISYLYESENKNSVA	DASQRES	QQYHRLPLS	-0.28 -0.03 -0.48 -0.16 -0.58 0.02	0/18
KLSQSTLYGSRNKNSVA	NASTRES	QQYHRLPLS	0.16 -0.32 0.06 -0.39 -0.29 -0.35	1/18 (1.98)
KSLQSVLYESRNKNSVA	HASTRED	QAYHRLPLS	ND ND ND ND ND ND	0/18
KSSISDLYESVNKNSVA	AASTRES	QQYHRLPLS	0.06 -0.22 -0.23 -0.58 -0.35 -0.12	0/18
KSSQSWDYESRNFWSVA	GASTRES	QQYHRLPLS	0.76 0.97 0.82 0.36 0.59 0.75	2/18 (2.12)

Excerpt, the final 2 entries:

CDR-L1	CDR-L2	CDR-L3	log10 Kd, replicates	control signals
KSSISDLYESVNKNSVA	AASTRES	QQYHRLPLS	0.06 -0.22 -0.23 -0.58 -0.35 -0.12	0/18
KSSQSWDYESRNFWSVA	GASTRES	QQYHRLPLS	0.76 0.97 0.82 0.36 0.59 0.75	2/18 (2.12)